Results reported in patent publication US20050170015A1 (priority 2000, published 2005).
Read-outs that look alike come from different tables or passages of the source.

Tested on: murine fibrosarcomas (RIF-1 cells)
Conditions: vinblastine 1 mg/kg i.p.

CC[C@]1(O)C[C@@H]2CN(CCc3c([nH]c4ccccc34)[C@@](C(=O)OC)(c3cc4c(cc3OC)N(C)[C@H]3[C@@](O)(C(=O)OC)[C@H](OC(C)=O)[C@]5(CC)C=CCN6CC[C@]43[C@@H]65)C2)C1 [Vinblastine]
Delay (3× (days 0, 3, 6)): 1.78 days | Delay (4× (days 0, 3, 6, 8)): 1.67 days
